Protein sequences, listed by entry. Tags and fused reporters are not part of them. Lines headed by an entry give the natural chain unless they say otherwise; changes in a name come on top.
UniProt P10275: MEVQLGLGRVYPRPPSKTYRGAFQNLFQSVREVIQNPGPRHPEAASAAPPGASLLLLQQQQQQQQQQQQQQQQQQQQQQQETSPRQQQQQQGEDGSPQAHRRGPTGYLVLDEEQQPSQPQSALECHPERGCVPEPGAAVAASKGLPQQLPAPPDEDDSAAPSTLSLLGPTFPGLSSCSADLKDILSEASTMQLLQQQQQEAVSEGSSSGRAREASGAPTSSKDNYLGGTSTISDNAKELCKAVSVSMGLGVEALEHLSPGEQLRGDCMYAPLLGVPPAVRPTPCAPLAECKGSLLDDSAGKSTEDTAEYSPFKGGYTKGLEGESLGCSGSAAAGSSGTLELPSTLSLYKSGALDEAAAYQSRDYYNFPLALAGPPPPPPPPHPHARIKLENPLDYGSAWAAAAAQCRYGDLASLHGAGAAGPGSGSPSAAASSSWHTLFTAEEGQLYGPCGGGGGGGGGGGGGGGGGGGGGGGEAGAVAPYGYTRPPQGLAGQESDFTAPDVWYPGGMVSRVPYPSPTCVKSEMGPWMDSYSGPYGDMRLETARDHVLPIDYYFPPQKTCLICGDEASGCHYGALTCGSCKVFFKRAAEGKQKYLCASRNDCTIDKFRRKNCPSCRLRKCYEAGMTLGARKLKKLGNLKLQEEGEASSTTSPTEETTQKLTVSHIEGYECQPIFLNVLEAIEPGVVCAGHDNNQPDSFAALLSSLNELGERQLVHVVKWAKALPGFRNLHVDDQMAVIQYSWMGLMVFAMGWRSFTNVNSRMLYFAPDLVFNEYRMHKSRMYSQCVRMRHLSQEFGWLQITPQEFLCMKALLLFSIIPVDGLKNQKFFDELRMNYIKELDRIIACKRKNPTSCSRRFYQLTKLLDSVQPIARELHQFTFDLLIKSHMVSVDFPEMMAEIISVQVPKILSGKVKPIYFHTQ

In ChEMBL document CHEMBL1137374:

Experiments:
Androgen receptor [1] = target: T1, Androgen receptor (Homo sapiens, UniProt P10275)
Androgen receptor [2] = target: T1, Androgen receptor; remark: listed apart in the source
Androgen receptor [3] = target: T1, Androgen receptor; remark: listed apart in the source

Compound | IC50 (Androgen receptor [1]) | EC50 (Androgen receptor [2]) | Ki (Androgen receptor [3])
CCCNc1ccc2[nH]c(=O)cc(C(F)(F)F)c2c1 | 27.5 nM | – | –
CCCCN(CCCC)c1ccc2[nH]c(=O)cc(C(F)(F)F)c2c1 | 29.5 nM | – | –
CCN(c1ccc2nc(O)cc(C(F)(F)F)c2c1)C(C)C | > 10000 nM | 2.2 nM | –
CC(C)Nc1ccc2[nH]c(=O)cc(C(F)(F)F)c2c1 | 16.5 nM | 106 nM | 58 nM
Nc1ccc2[nH]c(=O)cc(C(F)(F)F)c2c1 | 26 nM | > 10000 nM | > 10000 nM
CN(C)c1ccc2[nH]c(=O)cc(C(F)(F)F)c2c1 | 34 nM | > 10000 nM | 153 nM
